For one molecule, Ki results are on record in ChEMBL document CHEMBL1121888, “(alpha S)-erythro-alpha-methylepinephrine: preparation and stereoselective binding to adrenergic receptors in rat forebrain” (J Med Chem, 1981).

By UniProt entry, the sequences of proteins in these tests, tags left out. Where a name states a change or a piece, a line headed by the entry shows the natural chain unless it says otherwise.
UniProt P15823: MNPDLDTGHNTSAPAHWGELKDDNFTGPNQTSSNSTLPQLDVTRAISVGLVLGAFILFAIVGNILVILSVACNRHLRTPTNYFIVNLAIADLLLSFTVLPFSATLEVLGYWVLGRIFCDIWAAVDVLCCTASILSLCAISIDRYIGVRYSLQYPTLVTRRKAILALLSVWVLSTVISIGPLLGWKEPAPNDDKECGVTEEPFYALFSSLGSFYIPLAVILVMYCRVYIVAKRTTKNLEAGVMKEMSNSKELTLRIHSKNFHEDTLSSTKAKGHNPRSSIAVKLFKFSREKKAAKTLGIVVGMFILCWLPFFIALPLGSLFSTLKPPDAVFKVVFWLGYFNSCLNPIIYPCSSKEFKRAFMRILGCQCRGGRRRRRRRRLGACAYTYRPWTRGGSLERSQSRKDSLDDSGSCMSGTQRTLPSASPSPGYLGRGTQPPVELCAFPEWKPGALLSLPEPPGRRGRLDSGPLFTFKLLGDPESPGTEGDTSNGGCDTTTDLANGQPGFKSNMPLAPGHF
UniProt P23944: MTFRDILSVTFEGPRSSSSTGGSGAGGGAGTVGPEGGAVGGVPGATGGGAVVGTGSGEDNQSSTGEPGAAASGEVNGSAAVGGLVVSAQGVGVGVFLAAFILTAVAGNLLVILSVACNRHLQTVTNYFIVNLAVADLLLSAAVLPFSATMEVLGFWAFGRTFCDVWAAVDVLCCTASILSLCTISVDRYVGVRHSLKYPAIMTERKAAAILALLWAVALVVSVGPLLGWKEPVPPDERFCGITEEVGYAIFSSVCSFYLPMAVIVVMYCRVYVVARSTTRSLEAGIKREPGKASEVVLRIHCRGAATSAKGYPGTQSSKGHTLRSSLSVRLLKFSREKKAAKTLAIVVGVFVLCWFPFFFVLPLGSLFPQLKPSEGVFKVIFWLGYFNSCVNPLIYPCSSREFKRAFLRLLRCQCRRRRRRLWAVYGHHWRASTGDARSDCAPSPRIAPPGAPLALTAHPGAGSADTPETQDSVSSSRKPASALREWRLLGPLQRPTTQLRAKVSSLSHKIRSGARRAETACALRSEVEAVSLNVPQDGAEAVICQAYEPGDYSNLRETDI
UniProt P43140: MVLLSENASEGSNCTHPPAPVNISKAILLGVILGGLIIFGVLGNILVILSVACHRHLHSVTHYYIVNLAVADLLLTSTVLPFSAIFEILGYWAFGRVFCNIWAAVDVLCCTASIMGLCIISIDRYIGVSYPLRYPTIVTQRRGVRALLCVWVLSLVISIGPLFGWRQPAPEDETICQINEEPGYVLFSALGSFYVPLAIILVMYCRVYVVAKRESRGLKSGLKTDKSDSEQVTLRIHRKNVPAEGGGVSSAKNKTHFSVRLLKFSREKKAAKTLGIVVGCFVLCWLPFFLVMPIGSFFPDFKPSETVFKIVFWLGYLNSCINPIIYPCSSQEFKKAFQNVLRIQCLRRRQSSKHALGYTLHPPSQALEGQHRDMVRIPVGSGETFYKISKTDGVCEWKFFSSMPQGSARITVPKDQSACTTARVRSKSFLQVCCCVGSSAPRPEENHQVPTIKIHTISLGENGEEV

In the assay the target is Adrenergic receptor alpha-1 (Rattus norvegicus, UniProt P15823+P23944+P43140). Put plainly: Compound was evaluated for inhibition of [3H]prazosin binding to Alpha-1 adrenergic receptor in rat forebrain homogenate. The class given is tissue-based, Brain.

A word on the Ki: it is the dissociation constant of the complex between target and ligand, obtained from inhibition or displacement. Read a low Ki as higher affinity. Consider `CNC[C@H](O)c1ccc(O)c(O)c1` [EPINEPHRINE], for which the Ki turned out to be 200 nM.
